# scFv variants of Ab-14 (heavy chain) against a SARS-CoV-2 spike peptide

Antigen: PDVDLGDISGINAS, a 14-residue peptide of the SARS-CoV-2 spike HR2 region.

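Phage display of a naive human antibody library on the peptide gave the parent. The variants were designed computationally from a first round of random CDR variants and then made and measured. Group labels follow the data file (Ctrl: baseline library sampled from a position-specific scoring matrix, with some repeated check sequences; Rand: our label for a block that the file lists under HC and that is probably the random mutants of the ten best first-round binders; En: ensemble of fine-tuned language models; HC: hill climbing; Gen: genetic algorithm; Gibbs: Gibbs sampling; a sequence that several methods proposed may carry one label only). AlphaSeq pools MATa yeast showing the antibodies with MATalpha yeast showing the peptide. Mating (16 h, 30 °C) was followed by selection of diploids and sequencing of their barcodes. Scores were corrected for input abundance and mapped to Kd with protein pairs of known affinity run in the same pool. There are six technical replicates.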

Ab-14 is the parent antibody, in scFv form: VH, then the linker GGGGSGGGGSGGGGS, then VL. The light chain is unchanged in all variants.
VH: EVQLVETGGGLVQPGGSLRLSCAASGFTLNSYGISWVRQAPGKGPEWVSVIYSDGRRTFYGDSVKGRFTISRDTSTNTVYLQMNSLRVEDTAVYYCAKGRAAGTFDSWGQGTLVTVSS
VL: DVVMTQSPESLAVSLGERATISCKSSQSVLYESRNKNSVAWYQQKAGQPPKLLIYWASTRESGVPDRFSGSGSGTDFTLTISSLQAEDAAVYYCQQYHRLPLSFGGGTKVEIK

The parent's heavy chain CDRs are GFTLNSYGIS, VIYSDGRRTFYGDSVK, GRAAGTFDS; each variant's own CDRs replace them letter for letter. Variants here have more than six changes. Numbers give log10(Kd / nM), so 0 is 1 nM and 3 is 1 µM. Smaller is tighter. Averages over replicates are reported, and they cover detected replicates only. Where no diploid with the target was found in that replicate, the entry reads "nd": below detection, most likely a poor binder, though not proof of it. The list is sorted by this average, lowest first, undetected variants last. Values of this round are not directly comparable with the first-round values of the same sequences. The authors' rule: three or more of the six replicates give a measured affinity, fewer mean a poor binder. Empty control strains, which show no peptide, gave a signal in 1% of pairings with all heavy chain designs; the median was 2.08 and 95% of these signals were weaker than 0.84. No background was subtracted.

With GFDINEYGIS / VIYADGRRTFYADSVK / GQTAGTFDQ [En_HC] the result was -1.47, -1.46, -1.80, -1.92, -2.16, -1.49 (mean -1.72).
With GFDLNEYGIS / VIYADGRRTFYTDSVK / GSVAGTFDL [En_HC] the result was -0.88, -0.51, -0.40, -1.54, -0.72, -0.88 (mean -0.82).
With GFDLNEYGIS / VIYADGMRTAYIDSVK / GHNAGTFDV [En_HC] the result was -0.29, -0.48, -0.78, -0.75, -1.08, -0.76 (mean -0.69).
With GFDLNEYGIS / VIYADGVRTAYADSVK / GGVAGTFDV [En_Gen] the result was -0.49, -0.68, -0.42, -0.79, -0.72, -0.45 (mean -0.59).
With GFDLDEYGIS / VIYADGQRTAYSDSVK / GNVAGTFDL [En_Gen] the result was -0.58, -0.37, -0.37, -0.64, -1.01, -0.52 (mean -0.58).
With GFNLDEYGIS / VIYADGRRTFYADSVK / GQVAGTFDM [En_HC] the result was -0.30, -0.55, -0.66, -0.62, -0.79, -0.48 (mean -0.57).
With GFDLNEYGIS / VIYADGVRTAYADSVK / GQVAGTFDV [En_Gen] the result was -0.48, -0.43, -0.70, -0.63, -0.70, -0.41 (mean -0.56).
With GFDLDEYGIS / VIYADGMRKAYADSVK / GNNAGTFDV [En_Gen] the result was -0.44, -0.45, -0.67, -0.54, -0.53, -0.67 (mean -0.55).
With GFDLNEYGIS / VIYADGVRKAYADSVK / GNVAGTFDT [En_Gen] the result was -0.25, -0.42, -0.81, -0.95, -0.31, -0.30 (mean -0.51).
With GFDLDEYGIS / VIYADGMRTAYIDSVK / GNVAGTFDQ [En_Gen] the result was -0.43, -0.20, -0.55, -0.55, -0.43, -0.31 (mean -0.41).
With GFDLNEYGIS / VIYADGVRTFYADSVK / GTNGGTFDV [En_HC] the result was -0.08, nd, nd, -0.99, -0.43, -0.09 (mean -0.40).
With GFDLDEYGIS / VIYADGMRTAYSDSVK / GNEAGTFDI [En_Gen] the result was -0.38, -0.24, -1.12, -0.16, -0.23, -0.26 (mean -0.40).
With GFDLNEYGIS / VIYADGQRTFYADSVK / GNNAGTFDV [En_Gen] the result was -0.20, -0.49, -0.53, -0.38, -0.48, -0.22 (mean -0.38).
With GFDLDEYGIS / VIYADGQRTFYADSVK / GQNAGTFDQ [En_HC] the result was -0.02, -0.52, -0.88, -0.44, -0.27, -0.12 (mean -0.38).
With GFDLDEYGIS / VIYADGKRTAYADNVK / GNQAGTFDV [En_Gen] the result was -0.41, -0.33, -0.35, -0.65, -0.25, -0.24 (mean -0.37).
With GFDLNEYGIS / VIYADGKRTAYSDSVK / GEAAGTFDL [En_HC] the result was -0.25, -0.26, -0.08, -0.58, -0.38, -0.35 (mean -0.32).
With GFDLNEYGIS / VIYADGRRTFYADSVK / GKVAGTFNV [En_HC] the result was -0.14, -0.38, -0.27, -0.57, -0.42, -0.07 (mean -0.31).
With GFDLNEYGIS / VIYADGVRTFYIDSVK / GEIAGTFDV [En_HC] the result was -0.21, -0.16, -0.29, -0.33, -0.44, -0.17 (mean -0.27).
With GFDLNEYGIS / VIYADGFRTFYTDSVK / GEVAGTFDM [En_HC] the result was 0.00, -0.42, -0.01, -0.45, -0.34, -0.25 (mean -0.25).
With GFDLNEYGIS / VIYADGMRTFYADSVK / GEVAGTFVQ [En_HC] the result was -0.17, -0.12, -0.30, -0.53, -0.26, -0.09 (mean -0.24).
With GFDLNEYGIS / VIYADGMRTYYADDVK / GNNAGTFDM [En_Gen] the result was -0.27, -0.59, -0.77, -0.80, 1.75, -0.55 (mean -0.21).
With GFDLEEYGIS / VIYADGKRTYYADSVK / GNVAGTFDV [En_Gen] the result was 0.20, -0.60, -0.31, -0.20, -0.19, -0.01 (mean -0.19).
With GFDLNEYGIS / VIYADGMRTAYADSVK / GKNAGTFDV [En_Gen] the result was 0.25, 0.00, -0.31, -0.17, -0.28, -0.08 (mean -0.10).
With GFDLNEYGIS / VIYADGKRTAYSDSVK / GTNAGTFDM [En_Gen] the result was 0.00, 0.12, 0.03, -0.23, -0.23, 0.05 (mean -0.04).
With GFDLNEYGIS / VIYADGVRTFYADSVK / GNVAGTFDV [En_Gen] the result was -0.05, 0.24, 0.18, -0.15, -0.05, -0.14 (mean 0.01).
With GFTLDEYGIS / VIYADGRRTFYADSVK / GGNAGTFDV [En_HC] the result was 0.07, 0.07, 0.11, -0.23, 0.05, 0.30 (mean 0.06).
With GFDLNEYGIS / VIYADGKRTAYADDVK / GNEAGTFDV [En_Gen] the result was 0.25, 0.34, -0.01, 0.26, 0.20, 0.33 (mean 0.23).
With GFDLNEYGIS / VIYADGRRTYYIDSVK / GEIAGTFDV [En_HC] the result was 1.57, 0.01, 0.12, -0.02, 0.08, 0.40 (mean 0.36).
With GFEIQEFGIS / VIYADGFRTAYAENVK / GTLAGTFTT [En_Gibbs] the result was 1.21, 0.72, 0.29, 0.40, 0.88, 0.48 (mean 0.67).
With GFELDEYGIS / VIYADGLRYHYANSVK / GEMAGTFTT [En_Gibbs] the result was 1.73, 1.38, 1.57, 1.70, 1.52, nd (mean 1.58).
With GFVLQEYGIS / VIYADGMRTAYAEDFK / GVTGGNLHI [En_Gibbs] the result was nd, nd, nd, nd, nd, 2.38.
With GEDLQEYGIS / VIYADGFRQSYAEKVK / GQHGGYLVK [En_Gibbs] the result was nd, nd, nd, nd, nd, nd.
With SFTVNDYGIS / VCYSDGRRTFYGDNVK / GRAALTCIS [Rand] the result was nd, nd, nd, nd, nd, nd.
With GFTIDSYGIS / VIYSDGRRTFYDDEVK / DRAKGTFDN [Ctrl] the result was nd, nd, nd, nd, nd, nd.
With GFSLGEYGIS / VIYADGVRRSYADKVK / GKNGAISLV [En_Gibbs] the result was nd, nd, nd, nd, nd, nd.
With GNDLNEYGIS / VIYADGSRTSYIDKVK / GLVGGMLIV [En_Gibbs] the result was nd, nd, nd, nd, nd, nd.
With GFDVDEQGIS / VIYADGRRSQYANSVK / GANGGMFDM [En_Gibbs] the result was nd, nd, nd, nd, nd, nd.
With VFTRNHYGIS / VIISDGRRTFYSDAVK / GRAAGFFDE [Rand] the result was nd, nd, nd, nd, nd, nd.
With GFGLQDYGIS / VIYADGQRKMYQDNVK / GNVGSLFSV [En_Gibbs] the result was nd, nd, nd, nd, nd, nd.
With GENLDEYGIS / VIYADGIREAYANQVK / GEQGGYFNT [En_Gibbs] the result was nd, nd, nd, nd, nd, nd.
With GFNLDEYGIS / VIYADGMRAAYQNSVK / GFTPFVVAI [En_Gibbs] the result was nd, nd, nd, nd, nd, nd.
With GFDLDEQGIS / VIYADGVRCSYADKVK / GANSGVIDV [En_Gibbs] the result was nd, nd, nd, nd, nd, nd.
With GFNLDEQGIS / VIYADGMRTVYAKNVK / GQNVGFTVF [En_Gibbs] the result was nd, nd, nd, nd, nd, nd.
With GFDLGEYGIS / VIYADGHRTAYSTSVK / GTIGGMFFN [En_Gibbs] the result was nd, nd, nd, nd, nd, nd.

For reference, 2 entries of the list once more:

For GFDVDEQGIS / VIYADGRRSQYANSVK / GANGGMFDM [En_Gibbs], the assay gave nd, nd, nd, nd, nd, nd.
For GNDLNEYGIS / VIYADGSRTSYIDKVK / GLVGGMLIV [En_Gibbs], the assay gave nd, nd, nd, nd, nd, nd.

From the AlphaSeq antibody data of Li et al. 2023 (doi:10.1038/s41467-023-39022-2), copy in the FLAb collection.